These results are taken from patent publication US20120121591A1 (priority 2009, published 2012).

The chains behind the UniProt entries cited, without tags or fusion partners.
UniProt P22001, whole entry: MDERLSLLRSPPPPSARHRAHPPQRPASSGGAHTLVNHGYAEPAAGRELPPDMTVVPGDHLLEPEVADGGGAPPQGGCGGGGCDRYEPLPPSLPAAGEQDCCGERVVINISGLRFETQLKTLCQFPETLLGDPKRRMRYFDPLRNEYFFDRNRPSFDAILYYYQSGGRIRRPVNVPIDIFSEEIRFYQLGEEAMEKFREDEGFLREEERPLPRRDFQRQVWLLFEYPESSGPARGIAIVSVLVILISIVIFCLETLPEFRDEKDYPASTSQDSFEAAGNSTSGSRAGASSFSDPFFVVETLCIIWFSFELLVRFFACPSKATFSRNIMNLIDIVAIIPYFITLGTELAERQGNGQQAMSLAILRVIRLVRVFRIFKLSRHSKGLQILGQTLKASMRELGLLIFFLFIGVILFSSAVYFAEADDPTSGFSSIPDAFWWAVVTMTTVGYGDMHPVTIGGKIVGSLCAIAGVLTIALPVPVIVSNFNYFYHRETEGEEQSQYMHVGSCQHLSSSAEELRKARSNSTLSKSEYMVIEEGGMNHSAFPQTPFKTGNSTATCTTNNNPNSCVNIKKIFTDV

This assay addresses hKv1.3 (Homo sapiens, UniProt P22001). As to the kind of experiment: cell-based. The note with it: Kv1.3 (IWQ) IC50 (nM, Avg).
Regarding `CC[C@H](C)[C@@H]1NC(=O)[C@@H](NC(=O)[C@H](CO)NC(=O)[C@@H](N)CCCNC(=N)N)CSSC[C@@H](C(=O)O)NC(=O)[C@H]([C@@H](C)O)NC(=O)CNC(=O)[C@@H]2CSSC[C@@H]3NC(=O)[C@H](CCC(N)=O)NC(=O)[C@H](Cc4ccccc4)NC(=O)[C@H](C)NC(=O)[C@H](Cc4cccc5ccccc45)NC(=O)[C@H](CSSC[C@H](NC(=O)[C@H](Cc4ccccc4)NC(=O)[C@H](CO)NC(=O)[C@H](CC(C)C)NC(=O)[C@H](CCCNC(=N)N)NC(=O)[C@H](Cc4ccc(O)cc4)NC(=O)[C@H](CCCCN)NC(=O)[C@H](CCSC)NC(=O)[C@H](CO)NC(=O)[C@H](Cc4cnc[nH]4)NC(=O)[C@H](CCCCN)NC3=O)C(=O)N[C@@H](CCCNC(=N)N)C(=O)N[C@@H](CCCCN)C(=O)N[C@@H]([C@@H](C)O)C(=O)N2)NC(=O)[C@H](CCCNC(=N)N)NC(=O)[C@H](CO)NC(=O)[C@H](CCCCN)NC(=O)[C@@H]2CCCN2C(=O)[C@H]([C@@H](C)CC)NC(=O)[C@H]([C@@H](C)O)NC(=O)[C@H](CC(=O)O)NC1=O` [[1-Nal13]ShK], it took 0.235 nM to reach half-maximal inhibition (IC50).
Turning to `CC[C@H](C)[C@@H]1NC(=O)[C@@H](NC(=O)[C@H](CO)NC(=O)[C@@H](N)CCCNC(=N)N)CSSC[C@@H](C(=O)O)NC(=O)[C@H]([C@@H](C)O)NC(=O)CNC(=O)[C@@H]2CSSC[C@@H]3NC(=O)[C@H](CCC(N)=O)NC(=O)[C@H](Cc4ccccc4)NC(=O)[C@H](C)NC(=O)[C@H]([C@@H](C)O)NC(=O)[C@H](CSSC[C@H](NC(=O)[C@H](Cc4ccccc4)NC(=O)[C@H](CO)NC(=O)[C@H](CC(C)C)NC(=O)[C@H](CCCNC(=N)N)NC(=O)[C@H](Cc4ccc(O)cc4)NC(=O)[C@H](CCCCN)NC(=O)[C@H](CCSC)NC(=O)[C@H](CO)NC(=O)[C@H](Cc4cnc[nH]4)NC(=O)[C@H](CCCCN)NC3=O)C(=O)N[C@@H](CCCNC(=N)N)C(=O)N[C@@H](CCCCN)C(=O)N[C@@H]([C@@H](C)O)C(=O)N2)NC(=O)[C@H](C)NC(=O)[C@H](CO)NC(=O)[C@H](CCCCN)NC(=O)[C@@H]2CCCN2C(=O)[C@H]([C@@H](C)CC)NC(=O)[C@H]([C@@H](C)O)NC(=O)[C@H](CC(=O)O)NC1=O` [[Ala11]ShK], inhibition was half-maximal at 0.431 nM (IC50).
`CC[C@H](C)[C@@H]1NC(=O)[C@@H](NC(=O)[C@H](CO)NC(=O)[C@@H](N)CCCNC(=N)N)CSSC[C@@H](C(=O)O)NC(=O)[C@H]([C@@H](C)O)NC(=O)CNC(=O)[C@@H]2CSSC[C@@H]3NC(=O)[C@H](CCC(N)=O)NC(=O)[C@H](Cc4ccccc4)NC(=O)[C@H](C)NC(=O)[C@H](C)NC(=O)[C@H](CSSC[C@H](NC(=O)[C@H](Cc4ccccc4)NC(=O)[C@H](CO)NC(=O)[C@H](CC(C)C)NC(=O)[C@H](CCCNC(=N)N)NC(=O)[C@H](Cc4ccc(O)cc4)NC(=O)[C@H](CCCCN)NC(=O)[C@H](CCSC)NC(=O)[C@H](CO)NC(=O)[C@H](Cc4cnc[nH]4)NC(=O)[C@H](CCCCN)NC3=O)C(=O)N[C@@H](CCCNC(=N)N)C(=O)N[C@@H](CCCCN)C(=O)N[C@@H]([C@@H](C)O)C(=O)N2)NC(=O)[C@H](CCCNC(=N)N)NC(=O)[C@H](CO)NC(=O)[C@H](CCCCN)NC(=O)[C@@H]2CCCN2C(=O)[C@H]([C@@H](C)CC)NC(=O)[C@H]([C@@H](C)O)NC(=O)[C@H](CC(=O)O)NC1=O` [[Ala13]ShK] came in with an IC50 of 0.156 nM. Against the preceding compound, the IC50 is about 2.8-fold lower.
The compound `CC[C@H](C)[C@@H]1NC(=O)[C@@H](NC(=O)[C@H](CO)NC(=O)[C@@H](N)CCCNC(=N)N)CSSC[C@@H](C(=O)O)NC(=O)[C@H]([C@@H](C)O)NC(=O)CNC(=O)[C@@H]2CSSC[C@@H]3NC(=O)[C@H](C)NC(=O)[C@H](Cc4ccccc4)NC(=O)[C@H](C)NC(=O)[C@H]([C@@H](C)O)NC(=O)[C@H](CSSC[C@H](NC(=O)[C@H](Cc4ccccc4)NC(=O)[C@H](CO)NC(=O)[C@H](CC(C)C)NC(=O)[C@H](CCCNC(=N)N)NC(=O)[C@H](Cc4ccc(O)cc4)NC(=O)[C@H](CCCCN)NC(=O)[C@H](CCSC)NC(=O)[C@H](CO)NC(=O)[C@H](Cc4cnc[nH]4)NC(=O)[C@H](CCCCN)NC3=O)C(=O)N[C@@H](CCCNC(=N)N)C(=O)N[C@@H](CCCCN)C(=O)N[C@@H]([C@@H](C)O)C(=O)N2)NC(=O)[C@H](CCCNC(=N)N)NC(=O)[C@H](CO)NC(=O)[C@H](CCCCN)NC(=O)[C@@H]2CCCN2C(=O)[C@H]([C@@H](C)CC)NC(=O)[C@H]([C@@H](C)O)NC(=O)[C@H](CC(=O)O)NC1=O` [[Ala16]ShK] yielded an IC50 of 0.196 nM.
In turn, `CC[C@H](C)[C@@H]1NC(=O)[C@@H](NC(=O)[C@H](CO)NC(=O)[C@@H](N)CCCNC(=N)N)CSSC[C@@H](C(=O)O)NC(=O)[C@H]([C@@H](C)O)NC(=O)CNC(=O)[C@@H]2CSSC[C@@H]3NC(=O)[C@H](CCC(N)=O)NC(=O)[C@H](Cc4ccccc4)NC(=O)[C@H](C)NC(=O)[C@H]([C@@H](C)O)NC(=O)[C@H](CSSC[C@H](NC(=O)[C@H](Cc4ccccc4)NC(=O)[C@H](CO)NC(=O)[C@H](CC(C)C)NC(=O)[C@H](CCCNC(=N)N)NC(=O)[C@H](Cc4ccc(O)cc4)NC(=O)[C@H](CCCCN)NC(=O)[C@H](CCSC)NC(=O)[C@H](C)NC(=O)[C@H](Cc4cnc[nH]4)NC(=O)[C@H](CCCCN)NC3=O)C(=O)N[C@@H](CCCNC(=N)N)C(=O)N[C@@H](CCCCN)C(=O)N[C@@H]([C@@H](C)O)C(=O)N2)NC(=O)[C@H](CCCNC(=N)N)NC(=O)[C@H](CO)NC(=O)[C@H](CCCCN)NC(=O)[C@@H]2CCCN2C(=O)[C@H]([C@@H](C)CC)NC(=O)[C@H]([C@@H](C)O)NC(=O)[C@H](CC(=O)O)NC1=O` [[Ala20]ShK] registered an IC50 of 0.195 nM.
Next, `CC[C@H](C)[C@@H]1NC(=O)[C@@H](NC(=O)[C@H](CO)NC(=O)[C@@H](N)CCCNC(=N)N)CSSC[C@@H](C(=O)O)NC(=O)[C@H]([C@@H](C)O)NC(=O)CNC(=O)[C@@H]2CSSC[C@@H]3NC(=O)[C@H](CCC(N)=O)NC(=O)[C@H](Cc4ccccc4)NC(=O)[C@H](C)NC(=O)[C@H]([C@@H](C)O)NC(=O)[C@H](CSSC[C@H](NC(=O)[C@H](Cc4ccccc4)NC(=O)[C@H](CO)NC(=O)[C@H](CC(C)C)NC(=O)[C@H](CCCNC(=N)N)NC(=O)[C@H](Cc4ccc(O)cc4)NC(=O)[C@H](CCCCN)NC(=O)[C@H](CCSC)NC(=O)[C@H](CO)NC(=O)[C@H](CCC(=O)O)NC(=O)[C@H](CCCCN)NC3=O)C(=O)N[C@@H](CCCNC(=N)N)C(=O)N[C@@H](CCCCN)C(=O)N[C@@H]([C@@H](C)O)C(=O)N2)NC(=O)[C@H](CCCNC(=N)N)NC(=O)[C@H](CO)NC(=O)[C@H](CCCCN)NC(=O)[C@@H]2CCCN2C(=O)[C@H]([C@@H](C)CC)NC(=O)[C@H]([C@@H](C)O)NC(=O)[C@H](CC(=O)O)NC1=O` [[Glu19]ShK]: 0.256 nM.
